This is an account of results in patent US10053433B2, “Androgen receptor antagonists” (THE REGENTS OF THE UNIVERSITY OF CALIFORNIA, priority 2014, dated 2018).

By UniProt entry, the sequences of proteins in these tests, tags left out. Chains listed by the source or under a name are the forms on record and can include a tag or linker. Residues count along the entry.
UniProt P10275, whole entry T878A: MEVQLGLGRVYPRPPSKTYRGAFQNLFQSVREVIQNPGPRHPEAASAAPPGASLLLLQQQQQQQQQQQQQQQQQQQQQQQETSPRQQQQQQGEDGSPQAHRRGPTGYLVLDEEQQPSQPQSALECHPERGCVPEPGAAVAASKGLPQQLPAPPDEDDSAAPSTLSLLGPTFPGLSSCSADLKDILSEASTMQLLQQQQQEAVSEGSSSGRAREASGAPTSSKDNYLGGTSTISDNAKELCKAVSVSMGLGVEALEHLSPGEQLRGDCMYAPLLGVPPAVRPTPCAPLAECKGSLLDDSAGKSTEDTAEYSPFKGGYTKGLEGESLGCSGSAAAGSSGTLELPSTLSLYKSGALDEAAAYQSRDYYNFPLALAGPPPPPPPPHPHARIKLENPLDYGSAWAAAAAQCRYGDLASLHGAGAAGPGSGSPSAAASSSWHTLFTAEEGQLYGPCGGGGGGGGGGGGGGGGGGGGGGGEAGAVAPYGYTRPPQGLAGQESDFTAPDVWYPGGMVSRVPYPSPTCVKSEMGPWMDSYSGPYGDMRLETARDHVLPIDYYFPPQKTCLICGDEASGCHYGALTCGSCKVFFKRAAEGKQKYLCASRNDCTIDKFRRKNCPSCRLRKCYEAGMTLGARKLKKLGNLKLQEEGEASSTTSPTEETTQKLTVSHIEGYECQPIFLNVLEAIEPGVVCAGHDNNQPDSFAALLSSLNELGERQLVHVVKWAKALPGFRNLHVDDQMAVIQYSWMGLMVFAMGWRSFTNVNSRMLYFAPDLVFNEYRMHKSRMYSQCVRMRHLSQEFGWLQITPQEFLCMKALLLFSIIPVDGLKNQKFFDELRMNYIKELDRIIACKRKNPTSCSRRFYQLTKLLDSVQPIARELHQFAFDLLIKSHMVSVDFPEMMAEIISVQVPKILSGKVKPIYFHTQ
UniProt P10275, 669-900: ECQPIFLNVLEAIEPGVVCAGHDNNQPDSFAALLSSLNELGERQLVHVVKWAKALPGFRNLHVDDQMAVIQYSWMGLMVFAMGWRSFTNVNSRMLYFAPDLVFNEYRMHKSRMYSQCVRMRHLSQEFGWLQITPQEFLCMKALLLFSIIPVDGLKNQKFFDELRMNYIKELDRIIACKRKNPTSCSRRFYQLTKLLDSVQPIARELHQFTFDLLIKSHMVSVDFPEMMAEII
UniProt P10275, other isoform, or with tags, fused parts or gaps: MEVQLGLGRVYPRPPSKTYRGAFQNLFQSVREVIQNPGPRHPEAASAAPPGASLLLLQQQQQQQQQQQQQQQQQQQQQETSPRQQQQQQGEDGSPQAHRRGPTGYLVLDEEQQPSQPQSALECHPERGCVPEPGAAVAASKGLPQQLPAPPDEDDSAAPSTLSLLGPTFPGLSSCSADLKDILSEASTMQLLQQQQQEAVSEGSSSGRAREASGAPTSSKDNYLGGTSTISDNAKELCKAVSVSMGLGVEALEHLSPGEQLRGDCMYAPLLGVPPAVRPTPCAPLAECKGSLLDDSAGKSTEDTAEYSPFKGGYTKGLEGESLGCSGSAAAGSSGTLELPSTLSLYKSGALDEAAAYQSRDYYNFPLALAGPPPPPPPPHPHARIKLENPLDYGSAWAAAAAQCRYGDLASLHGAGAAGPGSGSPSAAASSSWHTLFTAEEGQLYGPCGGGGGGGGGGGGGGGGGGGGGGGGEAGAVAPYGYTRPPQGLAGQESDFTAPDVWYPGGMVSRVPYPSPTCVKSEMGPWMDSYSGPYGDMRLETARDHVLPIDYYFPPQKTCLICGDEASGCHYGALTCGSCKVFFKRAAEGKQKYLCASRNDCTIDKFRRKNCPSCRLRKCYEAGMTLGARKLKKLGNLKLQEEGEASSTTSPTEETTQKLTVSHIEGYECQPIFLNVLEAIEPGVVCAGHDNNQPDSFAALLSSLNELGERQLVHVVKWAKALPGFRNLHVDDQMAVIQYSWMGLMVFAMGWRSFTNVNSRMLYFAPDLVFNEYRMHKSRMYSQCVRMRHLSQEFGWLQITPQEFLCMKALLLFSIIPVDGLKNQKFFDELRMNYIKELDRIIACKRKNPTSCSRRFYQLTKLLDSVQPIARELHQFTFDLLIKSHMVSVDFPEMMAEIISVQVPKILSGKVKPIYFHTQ

By IC50 is commonly meant the concentration at which inhibition is half-maximal.

For assay [1], the target named is endogenous full length AR (Homo sapiens (Human), UniProt P10275, T878A). In words: mmTV-luciferase reporter assay, endogenous AR in LNCaP cells. Type of assay: cell-based. For orientation: Reporter assays use an easily measured gene product as a stand-in for the process of interest.
The subject of assay [2] is xenograft model of human prostate cancer. Particulars: compared with MDV3100 and RD162; cited from earlier work.
Assay [3] has as its target AR ligand-binding domain (AR LBD) (Homo sapiens (Human), UniProt P10275). Briefly: Gal4-luciferase reporter assay, Gal-AR LBD in HeLa cells. It counts as cell-based.
The target in the next assay is full length AR (Homo sapiens (Human), UniProt P10275). Briefly: mmTV-luciferase reporter assay, full length AR in HeLa cells. Type of assay: cell-based.

`C[C@](O)(CS(=O)(=O)c1ccc(F)cc1)C(=O)Nc1cnc(C#N)c(C(F)(F)F)c1`: the IC50 in assay [1] was found to be 140 ± 100 nM.
As to `CNC(=O)c1ccc(N2C(=S)N(c3cnc(C#N)c(C(F)(F)F)c3)C(=O)C23CCC3)cc1F` [ARN-509], the “efficacy in xenograft model of human prostate cancer” value in assay [2] was “greater efficacy”.
For the molecule `C[C@](O)(CS(=O)(=O)c1ccc(F)cc1)C(=O)Nc1cc(C(F)(F)F)c([N+](=O)[O-])cn1` [FC 4.129], the “Fold chg (LBD)” value in assay [3] came to 0.19. Besides, the “Fold chg (FL)” value on full length AR is on record as 0.12.
